The source of these data is US10066272B2, “Human homeobox gene ventx and macrophage terminal differentiation and activation, compositions and methods thereof” (priority 2011, dated 2018).

This assay concerns VentX. The experiment in a line: VentX expression during cytokine-induced monocyte to macrophage differentiation (RT-PCR, western blot). The conditions noted are these: monocytes cultured with cytokine at 100 ng/ml (FIG. 1B). It is filed as cell-based, human. As to the method: (A) VentX expression in circulating monocytes. Monocytes were magnetically isolated by anti-CD14 beads from peripheral blood of healthy adult donors. Total RNA was extracted and RT-PCR analysis of VentX mRNA level was conducted as described in Materials and Methods. (B) VentX expression during monocyte to macrophage differentiation in vitro. Monocytes were cultured in the presence of M-CSF (M), GM-CSF (GM) or IL3 for indicated days or in the absence of cytokines for 3 days. Upper panel, VentX mRNA levels were determined by RT-PCR; lower panel, VentX protein levels were determined by western blot analysis, using VentX specific antibodies. […] Cell lysates were then obtained and luciferase activities measured. […] The VentX mRNA levels were determined by quantitative PCR for up to 7 days.
Peripheral blood mononuclear cells (PBMC) from healthy adult donors at Children's Hospital Boston were isolated by Ficoll density gradient centrifugation. […] The purity of freshly isolated CD14^+ monocytes was more than 95% as analyzed by flow cytometry. […]
Total RNA was isolated by the TRIzol reagent, and an equal amount of RNA was used for first-strand cDNA synthesis with SuperScript III First-Strand Synthesis System (Invitrogen) according to the manufacturer's protocol. […] Quantitative measurement of VentX and cytokines cDNA were performed with SYBR Green on a LightCycler® (480 Real-Time PCR System; Roche). […]
(In western blotting, separated proteins are transferred to a membrane and probed.)

B1: IL3: cytokine purchased from PeproTech, induces monocyte to macrophage differentiation (protein, UniProt P08700 20-152, looked up)
Interleukin-3: APMTQTTPLKTSWVNCSNMIDEIITHLKQPPLPLLDFNNLNGEDQDILMENNLRRPNLEAFNRAVKSLQNASAIESILKNLLPCLPLATAAPTRHPIHIKDGDWNEFRRKLTFYLKTLENAQAQQTTLSLAIF
Regarding B1, the “VentX expression during monocyte to macrophage differentiation” value is recorded as “up-regulated”.
